# GIV Gai3 FP – inhibitors of GIV peptide binding to Galpha-i3, primary screen, biochemical, fluorescence polarization, FITC-GIV GBA peptide, rat Galphai3 | 90 min; stronger effect = lower value; scaled: aluminum fluoride 0%, vehicle 100% | AID 1224905, 2016 | 210,000 compounds, 0.42% hits | percent of control (FP), % (concentration not given with the values) | Guanine nucleotide-binding protein G(i) subunit alpha-3 (Rattus norvegicus), P08753;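 active = replicate mean at 85% of control or lower, very high polarization wells dropped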;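 note: wells of about 15 µL received 100 nL stock; the first replicate is given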
# HCMV UL50-53 inh – disrupts HCMV UL50-UL53 complex binding. HTRF UL50-UL53 interaction, normalized percent inhibition. inhibition, % (no concentration beside the values). 0.15% of 190,000 active; in the data active means inhibition above about 27%, passing the limit was not always enough
# Sa growth 42C – inhibitors of Staphylococcus aureus growth at 42 °C. S. aureus RN4220 growth, OD600, 20 h; hits give low values. relative growth, % (no concentration beside the values). 0.53% of 170,000 active;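 active means relative growth at most 50% at the other temperature and 20+ points below 30 °C, or under 10% at both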
# * hit, by the source's call; x = not tested or not shown. Hits are enriched below; roughly 0.7% of the tested compounds scored in any of these assays.
[1] COc1ccc(Cl)cc1NC(=O)c1cn(C2CCCCC2)c(=O)c2c1c1ccccc1n2C
[2] Cc1cc(C)nc(NS(=O)(=O)c2ccc(NS(=O)(=O)CC34CCC(CC3=O)C4(C)C)cc2)n1 (stereo not drawn)
[3] Cc1cc(NS(=O)(=O)c2ccc(NS(=O)(=O)CC34CCC(CC3=O)C4(C)C)cc2)no1 (stereo not drawn)
[4] CCOc1c(OC)cccc1C1Nc2c(C)cc(C)cc2[C@H]2OCCC[C@@H]12 (stereo partly drawn)
[5] Cc1cc(C)c2nc(N3CCCC(C(=O)N4CCN(c5ccccn5)CC4)C3)sc2c1 (stereo not drawn)

The chains behind the UniProt entries cited, without tags or fusion partners.
Guanine nucleotide-binding protein G(i) subunit alpha-3 (Rattus norvegicus), P08753, UniProt P08753, whole entry, looked up: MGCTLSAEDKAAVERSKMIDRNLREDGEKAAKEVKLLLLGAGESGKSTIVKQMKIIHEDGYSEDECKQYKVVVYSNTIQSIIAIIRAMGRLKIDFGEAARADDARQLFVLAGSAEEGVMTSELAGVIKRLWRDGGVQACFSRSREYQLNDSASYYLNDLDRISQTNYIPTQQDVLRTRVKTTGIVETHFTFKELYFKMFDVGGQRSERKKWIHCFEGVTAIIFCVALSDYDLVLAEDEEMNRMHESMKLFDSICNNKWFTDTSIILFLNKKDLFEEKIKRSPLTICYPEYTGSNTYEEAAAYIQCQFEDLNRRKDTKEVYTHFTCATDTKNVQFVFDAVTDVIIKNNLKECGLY

Assay by compound | 1 | 2 | 3 | 4 | 5
GIV Gai3 FP | 104 | x | x | 98 | 100
HCMV UL50-53 inh | 14 | 8 | -15 | x | -21
Sa growth 42C | 101 | 111 | 49* | x | 105

[6] OC[C@H]1OC([S-])[C@H](O)[C@@H](O)[C@@H]1O.[Au+] (stereo partly drawn)
[7] OCC1OC(Oc2ccccc2)C(O)C(O)C1O (stereo not drawn)
[8] CCOC(=O)c1c(C)sc(-c2c(-c3cc(C)ccc3C)[nH]c3c2c(=O)n(C)c(=O)n3C)c1O
[9] CCOC(=O)c1c(C)sc(-c2c(-c3cccc(Cl)c3)[nH]c3c2c(=O)n(C)c(=O)n3C)c1O
[10] COc1cccc2c1Oc1nc(-c3ccccc3)nc(SCC(=O)N(C)c3ccccc3)c1C2

Assay by compound | 6 | 7 | 8 | 9 | 10
GIV Gai3 FP | x | 102 | 195 | -63* | -21*
HCMV UL50-53 inh | 58* | -2 | 15 | -25 | x
Sa growth 42C | 94 | 103 | 101 | 97 | 94

[11] COC(=O)CSc1nc(-c2ccccc2)nc2c1Cc1cccc(OC)c1O2
[12] O=C(c1nc(-c2ccccc2)n(-c2ccccc2Cl)n1)N1CCCC1
[13] Cc1n[nH]c(C)c1Cc1c(Cl)cccc1Cl
[14] Cc1c(C#N)c2nc3ccccc3n2c(=O)/c1=C\Nc1cccc(NC(=O)c2ccccc2)c1
[15] Cc1c(C#N)c2nc3ccccc3n2c(=O)/c1=C\Nn1cnnc1

Assay by compound | 11 | 12 | 13 | 14 | 15
GIV Gai3 FP | 105 | 99 | 104 | -67* | 118
HCMV UL50-53 inh | -1 | 3 | 4 | x | x
Sa growth 42C | 98 | x | 66 | 111 | 90

[16] CCCN1C(=O)C(NC(=O)c2ccco2)(C(F)(F)F)N=C1c1ccccc1 (stereo not drawn)
[17] O=C(Cn1c(=O)oc2ccccc21)N(C1CCCCC1)C1CCCCC1
[18] CCN1CCc2c(sc(NC(=O)CCc3ccccc3)c2-c2nc3ccccc3s2)C1
[19] COC(=O)c1c(NC(=O)c2ccc(Br)cc2)sc2c1CCN(C(C)C)C2
[20] CC(=O)N1CCc2c(sc(NC(=O)c3ccc(Br)s3)c2-c2nc3ccccc3s2)C1

Assay by compound | 16 | 17 | 18 | 19 | 20
GIV Gai3 FP | 102 | x | 121 | -26* | 108
HCMV UL50-53 inh | -28 | -26 | x | x | -22
Sa growth 42C | 91 | 89 | x | x | 98

[21] CCOC(=O)c1c(NC(=O)c2ccc(Cl)cc2)sc2c1CCN(C(C)C)C2
[22] CC(=O)Nc1sc2c(c1-c1nc3ccccc3s1)CCN(Cc1ccccc1)C2
[23] CC(C)N1CCc2c(sc(NC(=O)c3ccc(F)cc3)c2-c2nc3ccccc3s2)C1
[24] CN1CCc2c(sc(NC(=O)CSc3ccccc3)c2-c2nc3ccccc3s2)C1
[25] CC(C)Oc1ccc(C(=O)Nc2sc3c(c2-c2nc4ccccc4s2)CCN(C)C3)cc1

Assay by compound | 21 | 22 | 23 | 24 | 25
GIV Gai3 FP | 186 | -3.2* | -3.2* | 188 | -3.2*
HCMV UL50-53 inh | x | x | x | x | x
Sa growth 42C | x | x | x | 114 | x

[26] CCOC(=O)C1CCN(c2nc(CC(=O)OC)nc3sc4c(c23)CCCC4)CC1
[27] CCCNc1cc(C)nc2c(C)c(-c3ccc(OC)c(OC)c3)nn12
[28] Nn1c(COc2ccccc2)n[nH]c1=S
[29] Cc1nnc(NC(=O)CSc2nnc(CNC(=O)c3ccco3)n2-c2ccc(F)cc2)s1
[30] CCC(=O)Nc1sc2c(c1-c1nc3ccccc3s1)CCN(C(C)=O)C2

Assay by compound | 26 | 27 | 28 | 29 | 30
GIV Gai3 FP | 99 | 105 | x | 104 | 104
HCMV UL50-53 inh | x | -14 | -32 | -7 | -28
Sa growth 42C | x | x | 67 | 95 | 92

[31] CCOc1ccc(C(=O)Nc2sc3c(c2-c2nc4ccccc4s2)CCN(CC)C3)cc1
[32] COc1cc(/C=N/N=C(N)N)ccc1OC(=O)c1ccc(C)cc1
[33] COc1ccc(/C=N/N=C(N)N)cc1OC
[34] O=C1C[C@@H]2[C@@H](CO)[C@H](OC(=O)c3ccc(-c4ccccc4)cc3)C[C@@H]2O1
[35] O=c1c(=O)n(Cc2cccc(F)c2)ccn1Cc1ccccc1

Assay by compound | 31 | 32 | 33 | 34 | 35
GIV Gai3 FP | -3.2* | 97 | 94 | x | 101
HCMV UL50-53 inh | x | -23 | -40 | 8 | -26
Sa growth 42C | x | -0.7* | 103 | 142 | 83

[36] c1c(SSc2cn3c(n2)CCC3)nc2n1CCC2
[37] COc1ccc(-c2cn3c(n2)CCC3)cc1
[38] CCOC(=O)c1sc(NC(=O)C2c3ccccc3Oc3ccccc32)c(C#N)c1C
[39] CCOC(=O)c1sc(N/C=C(\C#N)c2nc3cc(Cl)ccc3o2)c(C#N)c1C
[40] Cc1ccc2cccc(OCC(=O)N3C(C)CCCC3C)c2n1 (stereo not drawn)

Assay by compound | 36 | 37 | 38 | 39 | 40
GIV Gai3 FP | 100 | x | 106 | -7.6* | x
HCMV UL50-53 inh | -14 | 19 | 2 | -6 | -20
Sa growth 42C | -0.6* | 97 | 101 | 78 | 119

[41] N#Cc1c(N2CCCC(O)C2)nc(N)c2c(N)nc3c(c12)CC(=O)N3C12CC3CC(CC(C3)C1)C2 (stereo not drawn)
[42] C=C(C)CN(CC)c1nc(N)c2c(N)nc3c(c2c1C#N)CC(=O)N3C12CC3CC(CC(C3)C1)C2
[43] CC1CCC(NC(=O)c2ccc3c(=O)n(Cc4ccc5c(c4)OCO5)c(=S)[nH]c3c2)CC1 (stereo not drawn)
[44] N#CC(C#N)=Cc1ccc(-c2ccc3c(c2)COC3=O)o1
[45] Nc1nnnn1N=Cc1ccc(-c2ccc3c(c2)COC3=O)o1

Assay by compound | 41 | 42 | 43 | 44 | 45
GIV Gai3 FP | x | x | 113 | 102 | 36*
HCMV UL50-53 inh | 80* | 2 | x | -34 | x
Sa growth 42C | 100 | 92 | x | 98 | 104

# One compound at a time, as listed above. Order of values: GIV Gai3 FP, HCMV UL50-53 inh, Sa growth 42C
# Nc1nnnn1N=Cc1ccc(-c2ccc3c(c2)COC3=O)o1 reads 36*, x, 104
# N#CC(C#N)=Cc1ccc(-c2ccc3c(c2)COC3=O)o1 reads 102, -34, 98
# N#Cc1c(N2CCCC(O)C2)nc(N)c2c(N)nc3c(c12)CC(=O)N3C12CC3CC(CC(C3)C1)C2 (stereo not drawn) reads x, 80*, 100
# CC1CCC(NC(=O)c2ccc3c(=O)n(Cc4ccc5c(c4)OCO5)c(=S)[nH]c3c2)CC1 (stereo not drawn) reads 113, x, x

# (further entries)
[46] Cc1cc(C)c(C2=NON3N(C(=O)c4ccc(S(=O)(=O)N5CCOCC5)cc4)c4ccccc4N23)c(C)c1
[47] O=S(=O)(c1cc(O)cc(S(=O)(=O)C(F)(F)F)c1)C(F)(F)F
[48] O=S(=O)(c1ccc(Cl)cc1)C(F)(F)F
[49] Cc1cccc(Nc2ncnc3onc(C)c23)c1
[50] O=c1[nH]cnc2nc3n(c12)CCS3

Assay by compound | 46 | 47 | 48 | 49 | 50
GIV Gai3 FP | 97 | 101 | x | 99 | 108
HCMV UL50-53 inh | -18 | -13 | 10 | -6 | x
Sa growth 42C | 88 | -0.3* | 97 | x | x

[51] CC(C)C(=O)/C(C#N)=N/Nc1ccc(F)cc1
[52] N#C/C(=N\Nc1ccc(F)cc1)C(=O)NCC1CCCO1 (stereo not drawn)
[53] O=C(O)CCCN1C(=O)C2C3c4ccccc4C(c4ccccc43)C2C1=O (stereo not drawn)
[54] O=C(NCCCn1c(-c2ccncc2)nc2cccnc21)Nc1cccc(Br)c1
[55] COc1cc(/C=C2\C(=O)N(c3ccc(S(N)(=O)=O)cc3)N=C2C)cc(Cl)c1OCc1ccccc1

Assay by compound | 51 | 52 | 53 | 54 | 55
GIV Gai3 FP | 103 | 98 | 104 | 107 | 96
HCMV UL50-53 inh | -50 | -57 | 10 | -13 | 61*
Sa growth 42C | 8.0* | 93 | 101 | x | x

[56] COc1cc(/C=C2\C(=O)N(c3ccc(Cl)c(C(=O)O)c3)N=C2C)cc(OC)c1OC
[57] COc1cc(Br)c(/C=C2\C(=O)N(c3ccc(Cl)c(C(=O)O)c3)N=C2C)cc1OC
[58] CCOc1c(OC)cc(/C=C2/C(=O)N(c3ccc(S(N)(=O)=O)cc3)N=C2C)cc1[N+](=O)[O-]
[59] Cc1cc(C(=O)N2CCCC2c2cc(C)no2)on1 (stereo not drawn)
[60] Cc1ccccc1NC(=O)Nc1ccc(-n2ncnn2)cc1
[61] Cn1c(=O)c(N2CCCCC2)c2c3c(cccc31)C(=O)c1ccccc1-2
[62] Cn1c(=O)c(Nc2ccccc2)c2c3c(cccc31)C(=O)c1ccccc1-2
[63] O=c1oc2cc(O)ccc2cc1-c1csc(-c2ccccc2Cl)n1

Assay by compound | 56 | 57 | 58 | 59 | 60 | 61 | 62 | 63
GIV Gai3 FP | 99 | 112 | 95 | 101 | 105 | -32* | 116 | 112
HCMV UL50-53 inh | 63* | x | -10 | x | -2 | x | x | 5
Sa growth 42C | x | x | x | x | 122 | x | 111 | 85

# Compound activity from PubChem BioAssay.
